This is an account of results in patent publication US8053437B2, “Furo[3. 2-B] pyrrol derivatives” (Amura Therapeutics Limited, priority 2006, dated 2011).

The chains behind the UniProt entries cited, without tags or fusion partners. Residues count along the entry.
UniProt P43235, 115-329 limits assumed: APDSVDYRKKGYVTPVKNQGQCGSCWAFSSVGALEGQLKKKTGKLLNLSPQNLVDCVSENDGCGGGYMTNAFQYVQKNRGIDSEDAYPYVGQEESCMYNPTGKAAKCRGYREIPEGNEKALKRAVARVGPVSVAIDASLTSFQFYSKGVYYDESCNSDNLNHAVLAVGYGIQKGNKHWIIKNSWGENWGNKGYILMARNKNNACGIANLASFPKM

One may read the Ki as the equilibrium dissociation constant of an inhibitor or competing ligand from its target.

This assay addresses Human recombinant cathepsin K (Homo sapiens, UniProt P43235). As to the kind of experiment: In vitro cathepsin Ki inhibition measurements. It is filed as biochemical. The conditions noted are these: read-out: Ki (nM) vs Human Cathepsin K, prior art WO-A-02057270 examples.
On to `CC(C)C[C@H](NC(=O)c1csc(-c2cccnc2)n1)C(=O)N1CC[C@H]2OCC(=O)[C@H]21`, for which the inhibition constant Ki is over 2000 nM.
As for `O=C(N[C@@H](Cc1ccccc1)C(=O)N1CC[C@H]2OCC(=O)[C@H]21)c1ccoc1`, the Ki is over 10000 nM.
Turning to `CC(C)(C)c1ccc(C(=O)N[C@@H](Cc2cccc(O)c2)C(=O)N2CC[C@H]3OCC(=O)[C@H]32)cc1`, the Ki was over 8000 nM.
The same measure for `CC(C)C[C@H](NC(=O)c1cncc(-c2cccs2)c1)C(=O)N1CC[C@H]2OCC(=O)[C@H]21`: over 3000 nM.
